# Data published in patent publication US20260015632A1, “CULTURE MEDIUM COMBINATION FOR INDUCING DIFFERENTIATION OF PLURIPOTENT STEM CELLS INTO CD34+ HEMATOPOIETIC STEM/PROGENITOR CELLS” (SHENZHEN CELL INSPIRE BIOTECHNOLOGY CO., LTD., priority 2023, published 2026).
# Test system: iPSCs
# Assay: Optimization of iNK purity and yield, flow cytometry CD56/CD45 and fold expansion
# Format: cell-based, human
# Experimental: To further improve the differentiation efficiency and cytotoxicity of the obtained NK cells, UM171 was added to the second differentiation medium. Additionally, 1) 10 M SPHK2 inhibitor ABC294640 was added to the second and third differentiation medium, or 2) 75 M nicotinamide adenine dinucleotide (NAD^+), or 0.1 ng/mL HLA-C, or 1000 IU IL-2, or 15 μM SB203580 was added to the fourth differentiation medium. The expression levels of CD56 and CD45 of the obtained NK cells and the cell fold expansion were measured by flow cytometry.
# The cell expansion at the HSPC stage and the NK stage was calculated by dividing the number of suspension cells obtained at the sampling time point by the initial number of iPSCs at the spheroidization stage. The cell number was determined using the Countess™ 2 automated cell counter, and specific operating procedures can be found in the instrument's instructions.
# [1] = added to fourth differentiation medium: NAD+, 0.1 ng/mL HLA-C, 1000 IU IL-2 or 15 μM SB203580
substance,measurement,setting,value
IL-2: cytokine additive of the fourth differentiation medium,proportion of CD56+ or CD45+ cells,[1],without affecting
same,yield of iNK cells,[1],increase
same,proliferation rate of iNK cells,concentrations and media as in Example 5,increase
